Reference: publication PMC6147786, “Arsenic circumvents the gefitinib resistance by binding to P62 and mediating autophagic degradation of EGFR in non-small cell lung cancer” (2018)

Chains of the proteins cited; added tags and fusions are not shown. Residues count along the entry.
UniProt Q13501, 1-356 limits assumed: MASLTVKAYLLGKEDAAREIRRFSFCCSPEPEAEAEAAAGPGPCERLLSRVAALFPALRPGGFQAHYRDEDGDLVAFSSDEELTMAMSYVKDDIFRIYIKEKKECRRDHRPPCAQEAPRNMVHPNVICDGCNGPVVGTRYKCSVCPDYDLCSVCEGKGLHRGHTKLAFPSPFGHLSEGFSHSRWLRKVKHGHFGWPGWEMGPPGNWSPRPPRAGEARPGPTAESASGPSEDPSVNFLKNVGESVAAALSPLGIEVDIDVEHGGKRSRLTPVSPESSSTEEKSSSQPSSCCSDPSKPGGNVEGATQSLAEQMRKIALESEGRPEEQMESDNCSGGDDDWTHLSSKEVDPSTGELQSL

Target: P62 (Homo sapiens, UniProt Q13501)
Test: SPR (Biacore T200, His-P62 captured on CM5 chip)

## O=[As]O[As]=O (stereo not shown)
  Kd: 8.76 nM
